Results taken from patent US9133150B2, “O-nitro compounds and pharmaceutical compositions including same” (dated 2015).

Key:
SCC VII tumor [1] = experiment: Radiosensitization effect of GLYN and SG on SCC VII tumor growth; conditions: SG 400 mg/kg single dose + 7 Gy radiation; p<0.05 compared with radiation alone
SCC VII tumor [2] = experiment: Chemosensitization effect of GLYN in combination with cis-platin on SCC VII tumor growth; conditions: CDDP 5 mg/kg single dose alone, s.c. SCC VII tumors in mice

Substance	4x tumor growth delay time (SCC VII tumor [1]) [days]	4x TGT (tumor growth time: tumor volume quadrupling time) (SCC VII tumor [2]) [days]	TGD (tumor growth delay time: 4x TGT of treated tumors minus mean 4x TGT of control tumors) (SCC VII tumor [2]) [days]	TGD (tumor growth delay time: 4x TGT of treated tumors minus mean 4x TGT of control tumors) (SCC VII tumor [2]; listed as Cis-platin) [days]
sodium glycididazole	3.3	–	–	–
cis-platin	–	4.1 ± 0.4	1.1 ± 0.4	1.1
